Assay: Mortality, body weight and safety in tumor mice models
Format: in vivo, athymic nude mice
Details: SC injection in new formulation (1% poloxamer, 9% lactose)
Method: • 1. Mortality—every day • 2. Tumor measurements—twice a week • 3. Tumor weight post mortem • 4. Tissue preservation—kept in formalin or were snap freezed and kept at −80° C.
The first day of the study was defined as ‘Day 1’. The animals were administrated IP with either Vehicle (PBS or Formulation), lentiviral particles and SC with test items according to Table 27 on days 1, 4, 8 and 11. Body weight and tumor volume were checked on days 3, 7, 11, 14 and 17 (the latter was measured with a caliper). At the end of the experiment, on day 17, the mice were anesthetized and then sacrificed, and the tumors were removed, as well as lung, spleen, kidney and liver.

WTAVQMAVFIHNFKRK [INS]
Safety and efficacy of SC injection: both safe and effective

Source: patent US20220233652A1, “Pharmaceutical Compositions Comprising Integration-Promoting Peptides” (priority 2018, published 2022)
